The record followed here is patent US20060063759A1, “Tricyclic steroid hormone nuclear receptor modulators” (priority 2002, published 2006).

By UniProt entry, the sequences of proteins in these tests, tags left out.
UniProt P08235, whole entry: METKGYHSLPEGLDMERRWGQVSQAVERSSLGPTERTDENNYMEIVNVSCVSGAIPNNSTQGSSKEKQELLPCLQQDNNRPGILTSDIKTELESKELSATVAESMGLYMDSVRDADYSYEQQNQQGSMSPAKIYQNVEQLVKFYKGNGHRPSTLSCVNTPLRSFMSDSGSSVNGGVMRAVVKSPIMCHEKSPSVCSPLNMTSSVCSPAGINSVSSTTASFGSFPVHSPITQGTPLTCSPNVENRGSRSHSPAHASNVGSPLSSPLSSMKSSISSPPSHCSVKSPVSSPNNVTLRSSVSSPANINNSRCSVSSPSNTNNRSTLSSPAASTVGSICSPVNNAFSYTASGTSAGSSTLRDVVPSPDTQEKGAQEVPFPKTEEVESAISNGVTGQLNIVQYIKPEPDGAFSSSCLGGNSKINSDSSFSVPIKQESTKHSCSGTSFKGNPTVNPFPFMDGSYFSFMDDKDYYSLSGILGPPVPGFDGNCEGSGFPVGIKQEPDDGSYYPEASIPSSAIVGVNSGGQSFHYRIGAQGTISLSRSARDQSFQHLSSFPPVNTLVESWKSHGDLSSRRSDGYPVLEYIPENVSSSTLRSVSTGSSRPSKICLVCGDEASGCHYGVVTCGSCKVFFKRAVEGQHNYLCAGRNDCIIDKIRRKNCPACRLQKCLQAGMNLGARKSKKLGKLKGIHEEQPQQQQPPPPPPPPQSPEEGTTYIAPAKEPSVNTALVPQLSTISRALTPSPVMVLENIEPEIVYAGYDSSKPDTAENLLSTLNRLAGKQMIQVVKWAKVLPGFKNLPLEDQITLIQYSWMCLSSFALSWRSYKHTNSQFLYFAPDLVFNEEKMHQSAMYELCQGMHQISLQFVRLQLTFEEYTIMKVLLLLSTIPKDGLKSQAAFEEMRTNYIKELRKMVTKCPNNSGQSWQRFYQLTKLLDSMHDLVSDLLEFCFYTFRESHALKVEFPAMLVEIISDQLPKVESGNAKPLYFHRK
UniProt P04150, whole entry: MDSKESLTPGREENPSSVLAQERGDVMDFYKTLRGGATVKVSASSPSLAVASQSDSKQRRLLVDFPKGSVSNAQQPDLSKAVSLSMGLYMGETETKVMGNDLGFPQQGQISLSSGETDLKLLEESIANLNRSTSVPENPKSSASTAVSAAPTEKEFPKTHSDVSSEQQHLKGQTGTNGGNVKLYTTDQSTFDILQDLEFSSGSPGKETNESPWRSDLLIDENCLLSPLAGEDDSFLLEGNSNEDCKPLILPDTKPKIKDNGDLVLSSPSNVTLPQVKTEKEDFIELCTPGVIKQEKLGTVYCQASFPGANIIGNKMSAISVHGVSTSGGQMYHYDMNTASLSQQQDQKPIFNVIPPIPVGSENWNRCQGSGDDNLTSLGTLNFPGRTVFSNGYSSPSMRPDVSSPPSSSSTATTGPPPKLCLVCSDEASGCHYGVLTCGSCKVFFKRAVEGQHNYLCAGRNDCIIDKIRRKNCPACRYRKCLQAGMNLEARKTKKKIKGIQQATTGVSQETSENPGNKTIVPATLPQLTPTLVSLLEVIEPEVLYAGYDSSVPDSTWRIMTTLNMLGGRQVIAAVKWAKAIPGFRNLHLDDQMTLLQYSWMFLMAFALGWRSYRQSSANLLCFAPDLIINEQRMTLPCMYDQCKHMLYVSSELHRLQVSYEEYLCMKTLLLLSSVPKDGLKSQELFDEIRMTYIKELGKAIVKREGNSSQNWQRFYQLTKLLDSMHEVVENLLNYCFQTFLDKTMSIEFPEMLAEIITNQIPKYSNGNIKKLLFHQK

One assay concerns the target human MR (Homo sapiens, UniProt P08235). The experiment in a line: Mineralocorticoid Receptor Binding Assay ([3H]-aldosterone). Particulars: read-out: MR Ki; [3H]-aldosterone binding, human MR expressed in Sf9 cells.
Another assay addresses glucocorticoid receptor (Homo sapiens, UniProt P04150). The experiment in a line: Glucocorticoid Receptor Binding Assay ([3H]-dexamethasone, A549 cell extract). Particulars: read-out: GR Ki, [3H]-dexamethasone binding.

Regarding `[O-][N+]1=Nc2cc(C=C3c4ccccc4CCc4ccccc43)ccc2C1`, the Ki was less than 0.5 µM on human MR and less than 10 µM on glucocorticoid receptor.

Usually Ki stands for the dissociation constant of the complex between target and ligand, obtained from inhibition or displacement.
